A short description of the data set: Tf-DAK-PEG-OPSS degradation in pH 5.5 buffer followed by MALDI-TOF. It is filed as physicochemical. Conditions: 37° C., crude mixture. The protocol:
Preliminary studies were carried out to determine whether diamino ketal (DAK) could link Tf and PEG and allow for disassociation of Tf at mildly acidic pH. DAK was added to the amine-reactive terminus of NHS-PEG-OPSS followed by reaction with disuccinimidyl suberate (DSS) to reintroduce an amine-reactive functionality. DSS-DAK-PEG-OPSS was added to human holo-Tf to prepare Tf-DAK-PEG-OPSS (Scheme 2). Successful conjugation was verified by MALDI-TOF (FIG. 10). The conjugate's acid-sensitivity was verified by observing slow breakdown of the Tf-PEG's in the crude mixture over 24 hours in pH 5.5 buffer (FIG. 11). Significant decreases in higher orders of PEGylation are clear by 15 minutes and nearly all the PEG has cleaved by 2 hours.
Tf-DAK-PEG-OPSS was diluted to 1 mg/mL in 100 mM NaOAc pH 5.5 at 37° C. At various time points, aliquots were removed, diluted 1:10 in 10 mM NaH2PO4 pH 8.0 and frozen on CO2(s). Once the last aliquot was removed, all samples were melted and immediately measured by MALDI-TOF using a sinapinic acid matrix.

“Tf-DAK-PEG-OPSS: human holo-Tf conjugated through diamino ketal (DAK) linker to PEG-orthopyridyl disulfide”: the “Time by which significant decreases in higher orders of PEGylation are clear” value was no more than 15 min.
